Laboratory results taken from patent publication US6716833B2, “Acetylenic α-amino acid-based sulfonamide hydroxamic acid tace inhibitors” (priority 1999, dated 2004).
Read-outs that look alike come from different tables or passages of the source.

The chains behind the UniProt entries cited, without tags or fusion partners. Residues count along the entry.
UniProt P78536, 215-824, species assumed: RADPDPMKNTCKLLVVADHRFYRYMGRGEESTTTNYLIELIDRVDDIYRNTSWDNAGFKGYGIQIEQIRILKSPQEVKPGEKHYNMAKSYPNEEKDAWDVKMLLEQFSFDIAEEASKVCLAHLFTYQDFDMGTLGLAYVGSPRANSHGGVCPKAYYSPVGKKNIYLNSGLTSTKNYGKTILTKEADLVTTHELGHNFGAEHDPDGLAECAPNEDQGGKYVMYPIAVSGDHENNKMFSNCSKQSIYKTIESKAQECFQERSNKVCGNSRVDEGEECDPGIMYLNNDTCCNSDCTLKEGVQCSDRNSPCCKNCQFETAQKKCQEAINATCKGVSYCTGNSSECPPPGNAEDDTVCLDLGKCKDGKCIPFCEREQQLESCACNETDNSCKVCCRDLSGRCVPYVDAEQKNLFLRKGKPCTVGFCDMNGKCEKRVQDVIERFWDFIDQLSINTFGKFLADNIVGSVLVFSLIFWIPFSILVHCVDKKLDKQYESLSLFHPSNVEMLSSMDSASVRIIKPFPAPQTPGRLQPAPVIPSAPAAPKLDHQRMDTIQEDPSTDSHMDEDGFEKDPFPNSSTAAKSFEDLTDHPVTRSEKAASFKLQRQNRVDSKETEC

Experiments:
MMP-13 = MMP-13 (Homo sapiens, UniProt P45452); test: MMP-13 inhibition (thiopeptide or fluorescent peptide substrate); type: biochemical
[1] = target: TNF-α converting enzyme (TACE) (Homo sapiens, UniProt P78536); test: TACE inhibition (fluorescent peptidyl substrate); type: biochemical
MMP-1 = target: T1, MMP-1 (Homo sapiens, UniProt P03956); test: MMP-1 inhibition (thiopeptide or fluorescent peptide substrate); type: biochemical; conditions: MMP-1 IC50
T1 sequence (P03956 100-469): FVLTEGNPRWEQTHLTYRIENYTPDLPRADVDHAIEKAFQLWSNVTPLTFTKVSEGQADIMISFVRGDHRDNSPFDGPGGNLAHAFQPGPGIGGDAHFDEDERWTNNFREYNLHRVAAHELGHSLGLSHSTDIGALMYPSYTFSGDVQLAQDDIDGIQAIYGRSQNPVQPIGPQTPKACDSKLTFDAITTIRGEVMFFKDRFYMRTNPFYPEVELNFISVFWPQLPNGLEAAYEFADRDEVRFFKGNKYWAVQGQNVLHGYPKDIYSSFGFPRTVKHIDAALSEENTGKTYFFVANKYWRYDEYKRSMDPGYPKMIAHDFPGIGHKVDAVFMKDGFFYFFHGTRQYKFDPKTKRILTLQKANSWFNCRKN

THP-1 cells = test: THP-1 soluble protein assay, soluble TNF-α (ELISA); type: cell-based; conditions: Homo sapiens, THP-1, 3 μM

SMILES: CC#CCOc1ccc(S(=O)(=O)NCC(=O)NO)cc1 [Example 25, 2-(4-but-2-ynyloxy-Benzenesulfonylamino)-N-hydroxy-acetamide]
- IC50 (MMP-13; read-out: MMP-13 IC50): 185 nM

SMILES: CC#CCOc1ccc(S(=O)(=O)N[C@H](CCCNC(=O)CCCCCCC/C=C\CCCCCCCC)C(=O)NO)cc1 [Example 367, (Z)-N-[(4R)-4-({[4-(But-2-ynyloxy)phenyl]sulfonyl}amino)-5-(hydroxyamino)-5-oxopentyl]octadec-9-enamide]
- IC50 ([1]; IC 50 nM (In Vitro Inhibition of TACE), Table 15): 38 nM

SMILES: CC#CCOc1ccc(S(=O)(=O)N(C)C(CSCc2cccnc2)C(=O)NO)cc1 (centres unmarked) [Example 155, 2-[(4-but-2-ynyloxy-Benenesulfonyl)-methyl-amino]-N-hydroxy-3-(pyridin-3-ylmethylsulfanyl)-butyramide]
- IC50 ([1]; TACE IC50): 5.9 nM

SMILES: CC#CCOc1ccc(S(=O)(=O)N(C)C(C(=O)NO)C(C)(C)SCc2cccnc2)cc1 (centres unmarked) [Example 152, 2-[(4-but-2-ynyloxy-Benenesulfonyl)-methyl-amino]-N-hydroxy-3-methyl-3-(pyridin-3-ylmethylsulfanyl)-butyramide]
- IC50 (MMP-1): 8.7 nM

SMILES: CC#CCOc1ccc(S(=O)(=O)NC(C(=O)NO)c2ccc(OCCNC)cc2)cc1 (centres unmarked) [Example 204]
- IC50 (MMP-13; MMP-13 IC50): 146 nM

SMILES: CC#CCOc1ccc(S(=O)(=O)N(C)C(C(=O)NO)c2ccc(OCCNC)cc2)cc1 (centres unmarked) [Example 192, 2-({[4-(2-Butynyloxy)phenyl]sulfonyl}(methyl)amino)-N-hydroxy-2-{4-[2-(methylamino)ethoxy]phenyl}acetamide]
- IC50 (MMP-13; MMP-13 IC50): 27 nM

SMILES: CC#CCOc1ccc(S(=O)(=O)N2CCN(Cc3ccccc3)CCC2C(=O)NO)cc1 (centres unmarked) [Example 290, 1-Benzyl-4-{[4-(2-butynyloxy)phenyl]sulfonyl}-N-hydroxy-1,4-diazepane-5-carboxamide]
- inhibition at 3 µM (THP-1 cells): 45%
- IC50 (MMP-13; MMP-13 IC50): 7.5 nM
